The values below come from patent publication US9815796B2 (Merck Sharp & Dohme Corp., priority 2013, dated 2017).

Sequences of proteins named here, by UniProt entry; tags and fusion partners are left off. A line that says so, or that is headed by a name, gives the form on record, which may keep a tag or linker. Residues count along the entry.
UniProt O00408, other isoform, or with tags, fused parts or gaps: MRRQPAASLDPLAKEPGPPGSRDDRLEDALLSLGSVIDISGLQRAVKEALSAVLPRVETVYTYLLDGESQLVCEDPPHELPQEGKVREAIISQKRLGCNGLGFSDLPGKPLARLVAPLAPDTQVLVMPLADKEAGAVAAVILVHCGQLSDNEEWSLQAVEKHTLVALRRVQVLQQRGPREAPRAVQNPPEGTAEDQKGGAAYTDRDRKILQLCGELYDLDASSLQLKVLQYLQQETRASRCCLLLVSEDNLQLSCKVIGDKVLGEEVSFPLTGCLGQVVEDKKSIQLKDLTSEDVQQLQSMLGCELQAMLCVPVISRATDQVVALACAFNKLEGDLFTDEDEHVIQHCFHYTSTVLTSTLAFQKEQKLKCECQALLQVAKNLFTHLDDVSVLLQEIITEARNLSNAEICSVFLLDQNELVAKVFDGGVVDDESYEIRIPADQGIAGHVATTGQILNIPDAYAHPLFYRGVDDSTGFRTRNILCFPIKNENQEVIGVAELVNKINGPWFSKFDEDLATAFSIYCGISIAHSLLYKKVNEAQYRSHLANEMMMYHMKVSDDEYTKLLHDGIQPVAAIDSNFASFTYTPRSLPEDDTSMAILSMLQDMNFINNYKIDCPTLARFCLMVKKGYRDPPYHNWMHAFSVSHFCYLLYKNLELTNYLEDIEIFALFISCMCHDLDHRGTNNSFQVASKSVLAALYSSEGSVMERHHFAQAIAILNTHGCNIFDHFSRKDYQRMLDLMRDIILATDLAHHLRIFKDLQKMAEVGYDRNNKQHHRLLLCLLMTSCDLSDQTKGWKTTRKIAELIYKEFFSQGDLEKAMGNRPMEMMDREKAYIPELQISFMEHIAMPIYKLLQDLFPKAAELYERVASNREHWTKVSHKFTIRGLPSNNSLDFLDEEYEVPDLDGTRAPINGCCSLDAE
UniProt B3VTJ2, 1-941: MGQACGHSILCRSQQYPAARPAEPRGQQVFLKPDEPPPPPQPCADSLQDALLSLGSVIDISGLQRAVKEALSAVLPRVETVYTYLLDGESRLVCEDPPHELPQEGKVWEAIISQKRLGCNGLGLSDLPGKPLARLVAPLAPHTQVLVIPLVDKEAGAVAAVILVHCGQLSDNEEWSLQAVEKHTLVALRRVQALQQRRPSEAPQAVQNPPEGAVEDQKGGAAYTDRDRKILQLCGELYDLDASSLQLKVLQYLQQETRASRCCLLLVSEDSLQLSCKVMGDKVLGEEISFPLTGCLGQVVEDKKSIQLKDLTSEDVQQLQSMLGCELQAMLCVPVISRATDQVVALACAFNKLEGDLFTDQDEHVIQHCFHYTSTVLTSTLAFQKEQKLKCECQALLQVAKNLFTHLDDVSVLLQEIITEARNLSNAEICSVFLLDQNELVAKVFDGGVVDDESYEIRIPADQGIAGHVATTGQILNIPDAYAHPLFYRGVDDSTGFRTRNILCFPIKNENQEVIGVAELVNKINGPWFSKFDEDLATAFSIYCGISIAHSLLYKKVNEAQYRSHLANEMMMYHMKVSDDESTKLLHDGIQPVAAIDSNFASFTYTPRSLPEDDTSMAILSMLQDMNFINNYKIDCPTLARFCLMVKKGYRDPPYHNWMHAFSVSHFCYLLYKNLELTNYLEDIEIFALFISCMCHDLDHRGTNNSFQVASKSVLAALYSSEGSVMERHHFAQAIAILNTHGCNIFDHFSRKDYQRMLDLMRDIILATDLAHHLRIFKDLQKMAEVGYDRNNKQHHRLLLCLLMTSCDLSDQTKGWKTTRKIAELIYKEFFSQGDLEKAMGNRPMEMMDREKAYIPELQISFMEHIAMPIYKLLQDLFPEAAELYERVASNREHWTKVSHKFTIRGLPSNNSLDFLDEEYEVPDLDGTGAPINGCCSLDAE

One experiment has as its target human PDE2A1 (Homo sapiens (Human), UniProt O00408). Nature of the experiment: IMAP FP PDE selectivity panel, human PDE2A1. The format is biochemical. As to conditions: Human PDE2, Lab B. The procedure: Selectivity for PDE2, as compared to other PDE families, was assessed using the IMAP® technology. Human PDE 10A2 enzyme was prepared from cytosolic fractions of transiently transfected HEK cells. All other PDE's were GST Tag human enzyme expressed in insect cells and were obtained from BPS Bioscience (San Diego, Calif.): PDE1A (Cat#60010), human PDE2A1 (Cat#60020), PDE3A (Cat#60030), PDE4A1A (Cat#60040), PDE5A1 (Cat#60050), PDE6C (Cat#60060), PDE7A (Cat#60070), PDE8A1 (Cat#60080), PDE9A2 (Cat#60090), PDE11A4 (Cat#60110).
Assays for PDE 1 through 11 were performed in parallel at room temperature in 384-well microtiter plates with an incubation volume of 20.2 μL. Solutions of test compounds were prepared in DMSO and serially diluted with DMSO to yield 30 μL of each of ten solutions differing by 3-fold in concentration, at 32 serial dilutions per plate. […] A Labcyte POD 810 (Labcyte, Sunnyvale, Calif.) was used to dispense 200 nL from each well of the titration plate to make eleven copies of the assay plate for each titration, one copy for each PDE enzyme. […] The plates were incubated at room temperature for one hour, then the parallel and perpendicular fluorescence was measured using a Tecan Genios Pro plate reader (Tecan, Switzerland). The apparent inhibition constants for the compounds against all 11 PDE's was determined from the parallel and perpendicular fluorescent readings as described for PDE10 FP assay using the following apparent KM values for each enzyme and substrate combination: PDE1A (FAM cGMP) 70 nM, human PDE2A1 (FAM cAMP) 10,000 nM, PDE3A (FAM cAMP) 50 nM, PDE4A1A (FAM cAMP) 1500 nM, PDE5A1 (FAM cGMP) 400 nM, PDE6C (FAM cGMP) 700 nM, PDE7A (FAM cAMP) 150 nM, PDE8A1 (FAM cAMP) 50 nM, PDE9A2 (FAM cGMP) 60 nM, PDE10A2 (FAM cAMP) 150 nM, PDE11A4 (FAM cAMP) 1000 nM. The intrinsic PDE2 inhibitory activity of a compound which may be used in accordance with the present invention may be determined by these assays.

Another experiment deals with Rhesus PDE2A3 (Macaca mulatta, UniProt B3VTJ2). Nature of the experiment: PDE2 fluorescence polarization (IMAP FP) inhibition assay, rhesus enzyme. The format is biochemical, rhesus macaque. As to conditions: Rhesus PDE2, Lab B. The procedure: The activity of the compounds in accordance with the present invention as PDE2 inhibitors may be readily determined using a fluorescence polarization (FP) methodology (Huang, W., et al., J. Biomol Screen, 2002, 7: 215).
In a typical experiment the PDE2 inhibitory activity of the compounds of the present invention was determined in accordance with the following experimental method. Rhesus PDE2A3 was amplified from rhesus macaque brain cDNA (Biochain Institute, Hayward, Calif.) using primers based on human PDE2A sequence (accession NM_002599.3) where the forward primer containing a Kozak consensus was 5′-[…]-3′ and the reverse primer was 5′-[…]-3′. Amplification with Easy-A High-Fidelity PCR cloning enzyme (Stratagene, La Jolla, Calif.) was 95° C. for 2 minutes followed by thirty three cycles of 95° C. for 40 seconds, 52° C. for 30 seconds, and 72° C. for 2 minutes 48 seconds. Final extension was 72° C. for 7 minutes. The PCR product was TA cloned into pcDNA3.3-TOPO (Invitrogen, Carlsbad, Calif.) according to standard protocol. […] The fluorescence polarization assay for cyclic nucleotide phosphodiesterases was performed using an IMAP® FP kit supplied by Molecular Devices, Sunnyvale, Calif. […] 0% of inhibition is determined by using DMSO (1% final concentrations).
A Labcyte Echo 555 (Labcyte, Sunnyvale, Calif.) is used to dispense 200 nL from each well of the titration plate to the 384 well assay plate. […] The plate was incubated at room temperature for at least one hour prior to determining the fluorescence polarization (FP). The parallel and perpendicular fluorescence of each well of the plate was measured using a Tecan Genios Pro plate reader (Tecan, Switzerland) or Perkin Elmer EnVision™ plate reader (Waltham, Mass.). Fluorescence polarization (mP) was calculated from the parallel (S) and perpendicular (P) fluorescence of each sample well and the analogous values for the median control well, containing only substrate (So and Po), using the following equation: Polarization (mP)=1000*(S/So−P/Po)/(S/So+P/Po).
On the technique in general: Polarisation of emitted light reports the rotation of a fluorescent probe.

The Ki is the equilibrium dissociation constant of an inhibitor or competing ligand from its target. Regarding `Cc1nc(C(=O)N[C@]2(c3ccc(C(C)(C)C)cc3)C[C@H]2C)cc(=O)[nH]1` (single isomer, unassigned) [Example 666, N-[1-(4-tert-butylphenyl)-2-methylcyclopropyl]-2-methyl-6-oxo-1,6-dihydropyrimidine-4-carboxamide], the Ki on human PDE2A1 amounted to 329 nM.

On to `Cc1nc(C(=O)N[C@]2(c3ccc(C(C)(C)C)cc3)C[C@H]2C)cc(=O)[nH]1` (single isomer, unassigned) [Example 667, N-[1-(4-tert-butylphenyl)-2-methylcyclopropyl]-2-methyl-6-oxo-1,6-dihydropyrimidine-4-carboxamide], for which, on human PDE2A1, the Ki was found to be 10 nM.

On Rhesus PDE2A3, `Cc1nc(C(=O)NC(c2ccc(C(F)(F)F)cc2)C(C)(C)O)cc(=O)[nH]1` (single isomer, unassigned) [Example 725, N-{2-hydroxy-2-methyl-1-[4-(trifluoromethyl)phenyl]propyl}-2-methyl-6-oxo-1,6-dihydropyrimidine-4-carboxamide] returned a Ki of more than 2970 nM.

`Cc1nc(C(=O)NC(c2ccc(C(F)(F)F)cc2)C(C)(C)O)cc(=O)[nH]1` (single isomer, unassigned) [Example 726, N-{2-hydroxy-2-methyl-1-[4-(trifluoromethyl)phenyl]propyl}-2-methyl-6-oxo-1,6-dihydropyrimidine-4-carboxamide]: affinity at Rhesus PDE2A3 was put at a Ki of 11 nM.

As for `Cc1nc(C(=O)NC(c2ccc(C(F)(F)F)cc2)C(C)(C)O)cc(=O)[nH]1` (stereo not drawn) [Example 722, N-{2-hydroxy-2-methyl-1-[4-(trifluoromethyl)phenyl]propyl}-2-methyl-6-oxo-1,6-dihydropyrimidine-4-carboxamide], the Ki on human PDE2A1 came out at 17 nM; at Rhesus PDE2A3, 13 nM.
